Experimental data reported in patent US20060263427A1, “Quinine formulations” (priority 2005, published 2006).
Structures can show the parent of a compound that is named as a salt. Where two headings read alike, the source gives them in different places.

SMILES: C=C[C@H]1C[N@@]2CC[C@H]1C[C@H]2[C@H](O)c1ccnc2ccc(OC)cc12 [Quinine Sulfate, cinchonan-9-ol, 6′-methoxy-, (8α,9R)-, sulfate (2:1)]
- QTc (Study 1, B: 324 mg capsule, fed, 0 hours): 397 ms
- QTc (Study 1, B: 324 mg capsule, fed, 2 hours): 397 ms
- QTc (Study 1, B: 324 mg capsule, fed, 4 hours): 396 ms
- QTc (Study 1, B: 324 mg capsule, fed, 6 hours): 402 ms
- QTc (Study 1, B: 324 mg capsule, fed, 12 hours): 400 ms
- QTc (Study 1, B: 324 mg capsule, fed, 24 hours): 400 ms
- QTc (Study 2, C: 324 mg capsule, fasting, 2 hours): 415 ms
- QTc (Study 2, C: 324 mg capsule, fasting, 4 hours): 414 ms
- QTc (Study 2, C: 324 mg capsule, fasting, 6 hours): 411 ms
- QTc (Study 2, C: 324 mg capsule, fasting, 12 hours): 411 ms
- QTc (Study 2, C: 324 mg capsule, fasting, 24 hours): 409 ms
- QTc (Study 2, D: 648 mg (two capsules), fasting, 0 hours): 410 ms
- QTc (Study 2, D: 648 mg (two capsules), fasting, 2 hours): 422 ms
- QTc (Study 2, D: 648 mg (two capsules), fasting, 4 hours): 422 ms
- QTc (Study 2, D: 648 mg (two capsules), fasting, 6 hours): 419 ms
- QTc (Study 2, D: 648 mg (two capsules), fasting, 12 hours): 417 ms
- QTc (Study 2, D: 648 mg (two capsules), fasting, 24 hours): 412 ms
